From BindingDB's records for doi:10.1021/jm048962u (The Burnham Institute, 2005)

Chains of the proteins cited; added tags and fusions are not shown. Lines headed by an entry give the natural chain unless they say otherwise; changes in a name come on top.
UniProt P31749: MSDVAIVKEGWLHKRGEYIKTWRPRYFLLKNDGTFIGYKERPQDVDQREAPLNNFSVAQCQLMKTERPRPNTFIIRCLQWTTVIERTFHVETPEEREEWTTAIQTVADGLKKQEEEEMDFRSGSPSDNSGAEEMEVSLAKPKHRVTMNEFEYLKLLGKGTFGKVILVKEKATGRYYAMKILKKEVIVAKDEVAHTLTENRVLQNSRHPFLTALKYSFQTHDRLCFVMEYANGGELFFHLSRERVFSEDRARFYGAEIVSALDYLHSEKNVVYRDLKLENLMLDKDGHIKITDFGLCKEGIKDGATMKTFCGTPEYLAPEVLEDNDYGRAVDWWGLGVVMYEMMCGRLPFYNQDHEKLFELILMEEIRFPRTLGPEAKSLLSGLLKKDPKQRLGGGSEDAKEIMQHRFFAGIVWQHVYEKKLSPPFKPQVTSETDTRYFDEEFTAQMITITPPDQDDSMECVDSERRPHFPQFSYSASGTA

Molecular target: RAC-alpha serine/threonine-protein kinase (Homo sapiens, UniProt P31749)
Assay: Z-LYTE Kinase Assy
Details: pH 7.5; 25 °C
Description: The Z-LYTE assay (Invitrogen Corporation) employs a FRET-based, coupled-enzyme format and is based on the differential sensitivity of phosphorylated and non-phosphorylated peptides to proteolytic cleavage. A site-specific protease recognizes and cleaves nonphosphorylated peptides. […] Cleavage disrupts FRET between the donor (coumarin) and acceptor (fluorescein) fluorophores on the peptide, whereas uncleaved, phosphorylated peptides maintain FRET. The ratio of donor emission to acceptor emission after excitation of the donor fluorophore at 400 nm, quantitates reaction progress.

IC50: 126 µM
Compound: C=c1c(C#N)c2[nH]c(N)c(C#N)c(C)c-2c1=Cc1ccc(-c2ccc(C(=O)O)cc2)o1 [4-(5-{[(5E)-2-amino-3,7-dicyano-4,6-dimethyl-5H-cyclopenta[b]pyridin-5-ylidene]methyl}furan-2-yl)benzoic acid]
